{
  "source": "patent US20100003309A1",
  "origin": "cited, not measured here",
  "note": "Only a part of the results on these compounds is given; other tests are left out.",
  "data": [
    {"smiles": "CCC(=O)N(c1ccccc1)C1CCN(CCc2ccccc2)CC1", "values": [
      {"measurement": "remaining fraction dissolved in saliva and digested, slower digestive absorption", "setting": "Fentanyl preparations for oral administration", "value": 75, "unit": "%"},
      {"measurement": "absorption by the transmucosal route", "setting": "Fentanyl preparations for oral administration, transmucosal route", "value": 25, "unit": "%"},
      {"measurement": "time of transmucosal absorption", "setting": "time in which the 25 percent is absorbed by the transmucosal route", "value": "less than 5 minutes"}
    ]}
  ]
}
